Results reported in PubChem BioAssay AID1789 (The Scripps Research Institute Molecular Screening Center, 2009).
This is a selection; strong and weak results do not stand in their true shares. Activity calls are given as the source filed them.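 How the source made its calls: active means inhibition above the screen-wide mean plus 3 SD, computed separately per campaign (cut at about 16% in these data); inactive means the rest.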

system: Heat shock protein HSP 90 (rabbit reticulocyte lysate; luciferase refolding); assay: HSP90 inhibitors, primary screen, cell lysate, luminescence (AID 1789); details: 3 h, at 5.6 µM, active compounds read high;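 further: 0% = DMSO wells and 100% = 60 µM geldanamycin wells; inhibitors lower the luminescence because luciferase stays unfolded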

| SMILES | inhibition |
| --- | --- |
| CN(C)C1(CNC(=O)c2ccc(S(C)(=O)=O)cc2)CCCCC1 | inactive: -0.87% |
| O=P1(Nc2ncccn2)COc2ccccc2OC1 | inactive: -0.84% |
| O=P1(Nc2ccc(Br)cn2)COc2ccccc2OC1 | inactive: 0.96% |
| O=[As](O)(c1cccs1)c1cccs1 | inactive: 2.05% |
| Cc1ccc(OCC(=O)OC2CN3CCC2CC3)cc1 (stereo not drawn) | inactive: 0.56% |
| Nc1cccc([As](=O)(O)c2ccccc2)c1 | inactive: 3.88% |
| CCOC(=O)Nc1ccc([As](=O)(O)O)c(O)c1 | inactive: 0.55% |
| Cc1cc(SC(NC(=O)c2ccccc2)C(Cl)(Cl)Cl)nc(C(C)C)n1 (stereo not drawn) | inactive: -1.04% |
| CCCCOc1ccc(C(=O)NCC2(N3CCCCC3)CCCCC2)cc1OC | inactive: 3.65% |
| CCOC(=O)Nc1cccc([As](=O)(O)O)c1 | inactive: 8.01% |
| O=[N+]([O-])c1ccc(Nc2ccc(Oc3ccc([N+](=O)[O-])cc3[N+](=O)[O-])cc2)c([N+](=O)[O-])c1 | inactive: -2.68% |
| Cc1cc(SC(NC=O)C(Cl)(Cl)Cl)ncn1 (stereo not drawn) | inactive: 1.36% |
| O=P(Nc1ccccn1)(c1cccc2ccccc12)c1cccc2ccccc12 | inactive: 1.3% |
| COP1(=S)c2c(C)nn(CCC#N)c2N=C(c2ccc(F)cc2)N1C (stereo not drawn) | inactive: 0.45% |
| O=C(Nc1ccncc1[N+](=O)[O-])c1ccc([N+](=O)[O-])cc1[N+](=O)[O-] | inactive: 3.69% |
| O=C(COc1ccccc1)OC1CN2CCC1CC2 (stereo not drawn) | inactive: -1.11% |
| CCOC(=O)c1ccc(NC(=O)C(C)(CCl)SC)cc1 (stereo not drawn) | inactive: -4.4% |

| SMILES | inhibition |
| --- | --- |
| O=C(OC1CN2CCC1CC2)c1cccc([N+](=O)[O-])c1 (stereo not drawn) | inactive: -2.56% |
| CCC(C)N(CC(C)C)C(=S)SC(NC(C)=O)C(Cl)(Cl)Cl (stereo not drawn) | inactive: 3.31% |
| Cc1cc(=O)[nH]c(N[N+](=O)[O-])n1 | inactive: -2.23% |
| O=C(OC1CN2CCC1CC2)C12CC3CC(CC(C3)C1)C2 (stereo not drawn) | inactive: 2.23% |
| Cc1c2c(nc3ccccc13)SC(C(Cl)Cl)C2 (stereo not drawn) | inactive: -2.47% |
| COc1cc(I)ccc1[As](=O)(O)O | inactive: 5.01% |
| COc1ccc2nc(NP(=O)(c3ccccc3)c3ccccc3)sc2c1 | inactive: 3.3% |
| COc1ccc(N/C(=N/P(=O)(N2CCOCC2)N2CCOCC2)N2CCOCC2)cc1 | inactive: -4.26% |
| C[As](=O)(O)c1cccc(C(=O)O)c1 | inactive: 1.22% |
| Cc1ccc2nc3c(c(C)c2c1)CC(C(Cl)Cl)S3 (stereo not drawn) | inactive: -3.19% |
| Cc1ccc(OP(=O)(Nc2ccc([N+](=O)[O-])cn2)Oc2ccc(C)cc2)cc1 | inactive: 0.28% |
| CC(C)c1ccc(OP(=O)(Nc2ccccn2)Oc2ccccc2F)cc1 (stereo not drawn) | inactive: -4.73% |
| ClCCSc1nnc(-c2cccnc2)o1 | inactive: -0.57% |
| O=[N+]([O-])c1cc([N+](=O)[O-])c(-c2ccn[nH]2)s1 | inactive: 0.38% |
| CCN(CC)C(=S)SC(NC=O)C(Cl)(Cl)Cl (stereo not drawn) | inactive: -0.5% |
| CC(C)NC(=O)NP(=O)(Oc1ccccc1)Oc1ccccc1 | inactive: 2.73% |
